The values that follow come from patent US12187719B2, “Proteolysis targeting chimera (PROTACS) as degraders of SMARCA2 and /or SMARCA4” (Boehringer Ingelheim International GmbH, priority 2018, dated 2025).

Chains of the proteins cited; added tags and fusions are not shown.
UniProt P51532, whole entry: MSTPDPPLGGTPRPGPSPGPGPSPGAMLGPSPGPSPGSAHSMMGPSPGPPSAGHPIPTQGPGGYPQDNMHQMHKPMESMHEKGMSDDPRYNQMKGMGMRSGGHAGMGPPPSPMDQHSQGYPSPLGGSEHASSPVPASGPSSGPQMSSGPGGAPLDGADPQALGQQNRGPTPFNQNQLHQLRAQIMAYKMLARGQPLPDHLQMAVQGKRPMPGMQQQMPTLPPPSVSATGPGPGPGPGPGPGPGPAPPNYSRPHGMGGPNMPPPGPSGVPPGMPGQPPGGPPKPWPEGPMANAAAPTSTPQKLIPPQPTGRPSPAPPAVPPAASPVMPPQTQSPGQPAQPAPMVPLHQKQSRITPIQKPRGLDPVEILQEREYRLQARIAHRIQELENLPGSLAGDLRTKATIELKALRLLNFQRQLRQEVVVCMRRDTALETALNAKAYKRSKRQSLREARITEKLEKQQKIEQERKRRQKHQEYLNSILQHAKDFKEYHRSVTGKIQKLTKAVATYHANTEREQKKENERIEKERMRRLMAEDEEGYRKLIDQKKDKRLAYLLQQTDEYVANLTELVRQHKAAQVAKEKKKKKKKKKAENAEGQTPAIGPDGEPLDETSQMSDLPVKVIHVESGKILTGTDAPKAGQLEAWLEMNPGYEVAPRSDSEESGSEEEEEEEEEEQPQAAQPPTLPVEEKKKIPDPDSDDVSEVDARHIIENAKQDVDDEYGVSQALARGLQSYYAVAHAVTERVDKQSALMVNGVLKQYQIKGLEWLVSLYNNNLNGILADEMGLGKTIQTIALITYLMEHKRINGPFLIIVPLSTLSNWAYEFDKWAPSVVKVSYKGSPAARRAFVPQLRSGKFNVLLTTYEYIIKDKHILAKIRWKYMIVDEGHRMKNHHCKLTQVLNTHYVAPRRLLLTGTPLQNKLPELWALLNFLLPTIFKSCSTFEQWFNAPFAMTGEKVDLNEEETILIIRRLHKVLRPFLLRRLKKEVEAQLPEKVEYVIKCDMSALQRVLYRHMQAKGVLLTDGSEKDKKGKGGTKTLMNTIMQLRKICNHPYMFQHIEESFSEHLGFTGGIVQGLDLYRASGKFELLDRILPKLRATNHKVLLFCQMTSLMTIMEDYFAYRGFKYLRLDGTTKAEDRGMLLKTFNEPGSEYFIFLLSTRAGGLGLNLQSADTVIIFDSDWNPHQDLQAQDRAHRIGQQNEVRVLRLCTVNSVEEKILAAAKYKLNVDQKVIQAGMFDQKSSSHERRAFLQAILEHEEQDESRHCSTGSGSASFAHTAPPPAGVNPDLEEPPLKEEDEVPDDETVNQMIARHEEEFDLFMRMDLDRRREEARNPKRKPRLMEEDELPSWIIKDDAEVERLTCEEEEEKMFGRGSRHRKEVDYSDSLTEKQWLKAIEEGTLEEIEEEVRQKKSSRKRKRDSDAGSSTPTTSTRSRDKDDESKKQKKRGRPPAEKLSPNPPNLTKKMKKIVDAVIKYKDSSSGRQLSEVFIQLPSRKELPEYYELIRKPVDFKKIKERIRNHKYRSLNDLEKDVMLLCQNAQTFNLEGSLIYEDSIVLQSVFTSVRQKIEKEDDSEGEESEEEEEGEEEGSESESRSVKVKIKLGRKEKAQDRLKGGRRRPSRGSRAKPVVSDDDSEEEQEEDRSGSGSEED
UniProt P51531, whole entry: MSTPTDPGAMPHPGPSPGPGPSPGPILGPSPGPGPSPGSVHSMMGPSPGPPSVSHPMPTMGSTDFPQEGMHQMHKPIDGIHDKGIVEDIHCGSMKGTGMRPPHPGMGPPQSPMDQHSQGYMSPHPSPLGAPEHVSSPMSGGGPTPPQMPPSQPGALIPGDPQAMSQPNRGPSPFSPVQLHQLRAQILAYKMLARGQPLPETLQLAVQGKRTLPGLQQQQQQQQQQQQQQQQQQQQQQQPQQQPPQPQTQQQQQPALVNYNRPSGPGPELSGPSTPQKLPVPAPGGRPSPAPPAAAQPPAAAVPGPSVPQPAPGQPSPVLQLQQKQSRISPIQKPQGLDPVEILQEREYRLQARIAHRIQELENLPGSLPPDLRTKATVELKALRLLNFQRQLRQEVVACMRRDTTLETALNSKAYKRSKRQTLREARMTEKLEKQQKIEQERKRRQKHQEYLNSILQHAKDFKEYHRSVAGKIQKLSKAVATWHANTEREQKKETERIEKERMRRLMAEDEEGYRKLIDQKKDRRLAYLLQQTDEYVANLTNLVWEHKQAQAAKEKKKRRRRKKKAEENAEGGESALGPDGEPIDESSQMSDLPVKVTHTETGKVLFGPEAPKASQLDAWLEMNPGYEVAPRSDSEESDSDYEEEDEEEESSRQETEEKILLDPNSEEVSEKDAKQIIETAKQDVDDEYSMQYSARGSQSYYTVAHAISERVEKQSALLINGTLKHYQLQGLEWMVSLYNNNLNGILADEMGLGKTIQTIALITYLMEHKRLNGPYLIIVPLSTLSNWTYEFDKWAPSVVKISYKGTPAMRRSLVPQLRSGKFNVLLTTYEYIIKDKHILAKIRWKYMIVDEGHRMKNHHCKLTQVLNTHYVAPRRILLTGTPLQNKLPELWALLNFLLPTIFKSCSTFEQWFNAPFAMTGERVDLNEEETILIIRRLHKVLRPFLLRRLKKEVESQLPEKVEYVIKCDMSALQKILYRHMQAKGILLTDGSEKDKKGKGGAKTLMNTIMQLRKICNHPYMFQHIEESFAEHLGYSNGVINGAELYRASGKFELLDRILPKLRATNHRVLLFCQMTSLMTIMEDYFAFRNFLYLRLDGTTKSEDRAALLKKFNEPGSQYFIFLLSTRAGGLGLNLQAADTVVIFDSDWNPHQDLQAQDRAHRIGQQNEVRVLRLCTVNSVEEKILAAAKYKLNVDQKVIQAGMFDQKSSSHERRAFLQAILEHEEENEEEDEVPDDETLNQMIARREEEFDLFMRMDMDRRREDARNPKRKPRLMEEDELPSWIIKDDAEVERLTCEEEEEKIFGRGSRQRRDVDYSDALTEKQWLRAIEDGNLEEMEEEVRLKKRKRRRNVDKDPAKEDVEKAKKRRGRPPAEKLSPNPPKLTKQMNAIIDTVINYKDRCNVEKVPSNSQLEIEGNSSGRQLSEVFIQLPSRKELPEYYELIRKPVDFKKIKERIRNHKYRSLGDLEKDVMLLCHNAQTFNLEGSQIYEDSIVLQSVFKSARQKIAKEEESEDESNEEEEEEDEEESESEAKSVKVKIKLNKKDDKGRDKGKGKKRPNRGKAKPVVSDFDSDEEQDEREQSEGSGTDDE

One experiment has as its target SMARCA4 (Homo sapiens, UniProt P51532). As to the kind of experiment: Protein degradation assay in A549 cells, SMARCA4 levels by WES capillary electrophoresis. Particulars: A549 (NSCLC) cells with SMARCA4 mutation corrected to wild type, 18 h incubation; for Dmax SMARCA4: maximal amount of degraded protein relative to initial levels; for DC50: read-out: DC50 SMARCA4, concentration at which half maximal degradation is achieved, normalised to GAPDH.

The next experiment deals with SMARCA2 (Homo sapiens, UniProt P51531). As to the kind of experiment: Protein degradation assay in A549 cells, SMARCA2 levels by WES capillary electrophoresis. Particulars: A549 (NSCLC) cells with SMARCA4 mutation corrected to wild type, 18 h incubation; for Dmax SMARCA2: maximal amount of degraded protein relative to initial levels; for DC50: read-out: DC50 SMARCA2, concentration at which half maximal degradation is achieved, normalised to GAPDH.

Molecules are shown by their SMILES.

`Cc1ncsc1-c1ccc(CNC(=O)[C@@H]2C[C@@H](O)CN2C(=O)[C@@H](NC(=O)C2(F)CC2)C(C)(C)C)c(OCCc2ccc(CN3CCN(c4cc(-c5ccccc5O)nnc4N)CC3)cc2F)c1`: at SMARCA4, the “Dmax SMARCA4” value is recorded as 90% and the DC50 – broadly, the concentration giving 50% degradation – is 168 nM. Further, at SMARCA2, the “Dmax SMARCA2” value amounted to 92% and the DC50 came out at 84 nM.
Turning to `Cc1ncsc1-c1ccc(CNC(=O)[C@@H]2C[C@@H](O)CN2C(=O)[C@@H](NC(=O)C2(F)CC2)C(C)(C)C)c(OCCc2ccc(CN3CCN(c4cc(-c5ccccc5O)nnc4N)CC3)c(F)c2)c1`, at SMARCA4, the “Dmax SMARCA4” value is listed as 95% and the DC50 came to 33 nM. At SMARCA2, the “Dmax SMARCA2” value worked out at 95% and the DC50 is 55 nM.
Turning to `Cc1ncsc1-c1ccc(CNC(=O)[C@@H]2C[C@@H](O)CN2C(=O)[C@@H](NC(=O)C2(F)CC2)C(C)(C)C)c(OCC(C)c2ccc(CN3CCN(c4cc(-c5ccccc5O)nnc4N)CC3)cc2)c1` (stereo partly drawn), on SMARCA4, the “Dmax SMARCA4” value was 100% and the DC50 was 78 nM. In addition, at SMARCA2, the “Dmax SMARCA2” value is 87% and the DC50 is 118 nM.
